6 compounds from patent publication US6936585B2, “Corticotropin releasing factor 2 receptor agonists” (priority 2002, dated 2005) can be followed below.

One experiment addresses T1, CRF1R (Homo sapiens, UniProt P34998).
T1 sequence (P34998 24-415): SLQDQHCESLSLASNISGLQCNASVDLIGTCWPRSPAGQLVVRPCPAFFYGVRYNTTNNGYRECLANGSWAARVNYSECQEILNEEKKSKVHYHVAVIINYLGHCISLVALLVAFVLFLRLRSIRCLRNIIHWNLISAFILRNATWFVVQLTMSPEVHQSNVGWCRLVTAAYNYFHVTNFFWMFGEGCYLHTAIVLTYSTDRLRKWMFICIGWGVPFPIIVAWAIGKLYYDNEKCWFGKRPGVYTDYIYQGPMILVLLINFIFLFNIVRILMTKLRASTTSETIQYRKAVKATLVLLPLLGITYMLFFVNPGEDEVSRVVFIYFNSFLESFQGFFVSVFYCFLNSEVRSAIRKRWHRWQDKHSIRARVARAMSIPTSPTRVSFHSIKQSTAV
Kind of experiment: CRF1R agonist activation (EC50 / Emax), called comparative CRF binding. The experiment is classed as cell-based. The conditions noted are these: for EC50: CRF1R EC50; for Emax: read-out: CRF1R Emax. The method in brief: (§1)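 CRFR-expressing cells + peptide vs vehicle; read-out cAMP (lysate assay) or CRE-linked reporter expression (luciferase, CAT, fluorescent protein, alkaline phosphatase, etc.). Signal compared against vehicle-treated cells.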

Another experiment concerns the target T2, CRF2R (Homo sapiens, UniProt Q13324).
T2 sequence (Q13324 1-411): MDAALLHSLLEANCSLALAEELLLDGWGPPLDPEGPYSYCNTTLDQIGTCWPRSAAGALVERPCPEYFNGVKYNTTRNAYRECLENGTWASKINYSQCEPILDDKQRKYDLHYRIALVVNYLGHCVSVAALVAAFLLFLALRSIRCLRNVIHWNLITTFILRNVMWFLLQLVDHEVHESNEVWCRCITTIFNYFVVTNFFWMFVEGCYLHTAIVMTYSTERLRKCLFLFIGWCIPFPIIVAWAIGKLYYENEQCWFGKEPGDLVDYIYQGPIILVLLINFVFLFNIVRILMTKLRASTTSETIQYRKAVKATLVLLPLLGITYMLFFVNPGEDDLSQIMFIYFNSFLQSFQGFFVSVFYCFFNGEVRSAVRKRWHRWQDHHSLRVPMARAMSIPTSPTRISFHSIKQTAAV
As to the kind of experiment: CRF2R agonist activation (EC50 / Emax), called comparative CRF binding. The experiment is classed as cell-based. Particulars: for Emax: read-out: CRF2R Emax. In a few lines: as §1

For orientation: EC50 means the concentration that produces a half-maximal response. Lower therefore signals higher potency in that assay. What is called Emax is the maximal effect, on the per cent scale that the assay sets. As for `CC[C@H](C)[C@H](NC(=O)[C@@H](NC(=O)[C@H](CC(=O)O)NC(=O)[C@H](CC(C)C)NC(=O)[C@H](CC(C)C)NC(=O)[C@H](CC(C)C)NC(=O)[C@H](CCCNC(=N)N)NC(=O)[C@H](CC(N)=O)NC(=O)[C@H](CC(N)=O)NC(=O)[C@H](C)NC(=O)[C@H](C)NC(=O)[C@H](CCC(N)=O)NC(=O)[C@H](CCC(N)=O)NC(=O)[C@H](CCCCN)NC(=O)[C@H](CCC(=O)O)NC(=O)[C@H](CCCCN)NC(=O)[C@H](CCC(=O)O)NC(=O)[C@H](CCC(N)=O)NC(=O)[C@H](CCCCN)NC(=O)[C@H](CCC(=O)O)NC(=O)[C@@H](NC(=O)[C@H](CCC(=O)O)NC(=O)[C@@H](NC(=O)[C@H](CCSC)NC(=O)[C@H](CCCCN)NC(=O)[C@H](CCCNC(=N)N)NC(=O)[C@H](CC(C)C)NC(=O)[C@H](CC(C)C)NC(=O)[C@H](Cc1c[nH]c2ccccc12)NC(=O)[C@H](Cc1ccc(O)cc1)NC(=O)[C@@H]1CCCN1C(=O)[C@H](CC(C)C)NC(=O)[C@H](CC(=O)O)NC(=O)[C@@H](NC(=O)[C@H](CO)NC(=O)[C@@H](NC(=O)[C@@H]1CCCN1C(=O)[C@@H]1CCCN1C(=O)CNC(=O)[C@@H]1CCC(=O)N1)[C@@H](C)CC)[C@@H](C)CC)[C@@H](C)CC)[C@@H](C)CC)[C@@H](C)O)C(N)=O` [compound 215], at CRF1R, it took 0.187 µM to reach a half-maximal effect (EC50) and the Emax is 100%. At CRF2R, the EC50 is 0.004 µM and the Emax amounted to 100%.

As to `CC[C@H](C)[C@H](NC(=O)[C@@H](NC(=O)[C@H](CC(=O)O)NC(=O)[C@H](CC(C)C)NC(=O)[C@H](CC(C)C)NC(=O)[C@H](CC(C)C)NC(=O)[C@H](C)NC(=O)[C@H](CC(N)=O)NC(=O)[C@H](CC(N)=O)NC(=O)[C@H](C)NC(=O)[C@H](C)NC(=O)[C@H](CCC(N)=O)NC(=O)[C@H](CCC(N)=O)NC(=O)[C@H](CCCCN)NC(=O)[C@H](CCC(=O)O)NC(=O)[C@H](CCCCN)NC(=O)[C@H](CCC(=O)O)NC(=O)[C@H](CCC(N)=O)NC(=O)[C@H](CCCCN)NC(=O)[C@H](CCC(=O)O)NC(=O)[C@@H](NC(=O)[C@H](CCC(=O)O)NC(=O)[C@@H](NC(=O)[C@@H](NC(=O)[C@H](CCCCN)NC(=O)[C@H](CCCNC(=N)N)NC(=O)[C@H](CC(C)C)NC(=O)[C@H](CC(C)C)NC(=O)[C@H](Cc1ccccc1)NC(=O)[C@H](Cc1ccccc1)NC(=O)[C@@H]1CCCN1C(=O)[C@H](CC(C)C)NC(=O)[C@H](CC(=O)O)NC(=O)[C@@H](NC(=O)[C@H](CO)NC(=O)[C@@H](NC(=O)[C@@H]1CCCN1C(=O)[C@@H]1CCCN1C(=O)CNC(=O)[C@@H]1CCC(=O)N1)[C@@H](C)CC)[C@@H](C)CC)C(C)C)[C@@H](C)CC)[C@@H](C)CC)[C@@H](C)O)C(N)=O` [compound 316], the Emax on CRF1R was 92.3%; at CRF2R, 94.5%.

Take `CC[C@H](C)[C@H](NC(=O)[C@@H](NC(=O)[C@H](CC(=O)O)NC(=O)[C@H](CC(C)C)NC(=O)[C@H](CC(C)C)NC(=O)[C@H](CC(C)C)NC(=O)[C@H](CCCNC(=N)N)NC(=O)[C@H](CC(N)=O)NC(=O)[C@H](CC(N)=O)NC(=O)[C@H](C)NC(=O)[C@H](C)NC(=O)[C@H](CCC(N)=O)NC(=O)[C@H](CCC(N)=O)NC(=O)[C@H](CCCCN)NC(=O)[C@H](CCC(=O)O)NC(=O)[C@H](CCCCN)NC(=O)[C@H](CCC(=O)O)NC(=O)[C@H](CCC(N)=O)NC(=O)[C@H](CCCCN)NC(=O)[C@H](CCC(=O)O)NC(=O)[C@@H](NC(=O)[C@H](CCC(=O)O)NC(=O)[C@@H](NC(=O)[C@H](CCSC)NC(=O)[C@H](CCCCN)NC(=O)[C@H](CCCNC(=N)N)NC(=O)[C@H](CC(C)C)NC(=O)[C@H](CC(C)C)NC(=O)CNC(=O)[C@@H](NC(=O)[C@@H]1CCCN1C(=O)[C@@H](NC(=O)[C@H](CC(=O)O)NC(=O)[C@@H](NC(=O)[C@H](CO)NC(=O)[C@@H](NC(=O)[C@@H]1CCCN1C(=O)[C@@H]1CCCN1C(=O)CNC(=O)[C@@H]1CCC(=O)N1)[C@@H](C)CC)[C@@H](C)CC)C(C)C)[C@@H](C)CC)[C@@H](C)CC)[C@@H](C)CC)[C@@H](C)O)C(N)=O` [compound 254]: the Emax at CRF1R is 6%; on CRF2R it was 36%.

`CC[C@H](C)[C@H](NC(=O)[C@@H](NC(=O)[C@H](CC(=O)O)NC(=O)[C@H](CC(C)C)NC(=O)[C@H](CC(C)C)NC(=O)[C@H](CC(C)C)NC(=O)[C@H](CCCNC(=N)N)NC(=O)[C@H](CC(N)=O)NC(=O)[C@H](CC(N)=O)NC(=O)[C@H](C)NC(=O)[C@H](C)NC(=O)[C@H](CCC(N)=O)NC(=O)[C@H](CCC(N)=O)NC(=O)[C@H](CCCCN)NC(=O)[C@H](CCC(=O)O)NC(=O)[C@H](CCCCN)NC(=O)[C@H](CCC(=O)O)NC(=O)[C@H](CCC(N)=O)NC(=O)[C@H](CCCCN)NC(=O)[C@H](CCC(=O)O)NC(=O)[C@@H](NC(=O)[C@H](CCC(=O)O)NC(=O)[C@@H](NC(=O)[C@H](CCSC)NC(=O)[C@H](CCCCN)NC(=O)[C@H](CCCNC(=N)N)NC(=O)[C@H](CC(C)C)NC(=O)[C@H](CC(C)C)NC(=O)[C@H](C)NC(=O)[C@H](CCC(N)=O)NC(=O)[C@@H]1CCCN1C(=O)[C@H](CC(C)C)NC(=O)[C@H](CC(=O)O)NC(=O)[C@@H](NC(=O)[C@H](CO)NC(=O)[C@@H](NC(=O)[C@@H]1CCCN1C(=O)[C@@H]1CCCN1C(=O)CNC(=O)[C@@H]1CCC(=O)N1)[C@@H](C)CC)[C@@H](C)CC)[C@@H](C)CC)[C@@H](C)CC)[C@@H](C)O)C(N)=O` [compound 302]: on CRF1R, the response was half-maximal at 0.367 µM (EC50) and the Emax came to 100%. Moreover, at CRF2R, a half-maximal effect (EC50) was put at 0.0362 µM and the Emax was determined as 100%.

With `CC[C@H](C)[C@H](NC(=O)[C@@H](NC(=O)[C@H](C)NC(=O)[C@H](CC(C)C)NC(=O)[C@H](CC(C)C)NC(=O)[C@H](CC(C)C)NC(=O)[C@H](C)NC(=O)[C@H](CC(N)=O)NC(=O)[C@H](CC(N)=O)NC(=O)[C@H](C)NC(=O)[C@H](C)NC(=O)[C@H](CCC(N)=O)NC(=O)[C@H](CCC(N)=O)NC(=O)[C@H](CCCCN)NC(=O)[C@H](CCC(=O)O)NC(=O)[C@H](CCCCN)NC(=O)[C@H](CCC(=O)O)NC(=O)[C@H](CCC(N)=O)NC(=O)[C@H](CCCCN)NC(=O)[C@H](CCC(=O)O)NC(=O)[C@@H](NC(=O)[C@H](CCC(=O)O)NC(=O)[C@@H](NC(=O)[C@@H](NC(=O)[C@H](CCCCN)NC(=O)[C@H](CCCNC(=N)N)NC(=O)[C@H](CC(C)C)NC(=O)[C@H](CC(C)C)NC(=O)[C@H](Cc1ccccc1)NC(=O)[C@H](Cc1ccccc1)NC(=O)[C@@H]1CCCN1C(=O)[C@H](CC(C)C)NC(=O)[C@H](CC(=O)O)NC(=O)[C@@H](NC(=O)[C@H](CO)NC(=O)[C@@H](NC(=O)[C@@H]1CCCN1C(=O)[C@@H]1CCCN1C(=O)CNC(=O)[C@@H]1CCC(=O)N1)[C@@H](C)CC)[C@@H](C)CC)C(C)C)[C@@H](C)CC)[C@@H](C)CC)[C@@H](C)O)C(N)=O` [compound 317], the values for the EC50 at CRF1R and at CRF2R were 0.187 µM and 0.0093 µM, respectively. In addition, the Emax at CRF1R turned out to be 100%; on CRF2R, 88.3%.

For the compound `CC[C@H](C)[C@H](NC(=O)[C@@H](NC(=O)[C@H](CC(=O)O)NC(=O)[C@H](CC(C)C)NC(=O)[C@H](CC(C)C)NC(=O)[C@H](CC(C)C)NC(=O)[C@H](CCCNC(=N)N)NC(=O)[C@H](CC(N)=O)NC(=O)[C@H](CC(N)=O)NC(=O)[C@H](C)NC(=O)[C@H](C)NC(=O)[C@H](CCC(N)=O)NC(=O)[C@H](CCC(N)=O)NC(=O)[C@H](CCCCN)NC(=O)[C@H](CCC(=O)O)NC(=O)[C@H](CCCCN)NC(=O)[C@H](CCC(=O)O)NC(=O)[C@H](CCC(N)=O)NC(=O)[C@H](CCCCN)NC(=O)[C@H](CCC(=O)O)NC(=O)[C@@H](NC(=O)[C@H](CCC(=O)O)NC(=O)[C@@H](NC(=O)[C@H](CCSC)NC(=O)[C@H](CCCCN)NC(=O)[C@H](CCCNC(=N)N)NC(=O)[C@H](CC(C)C)NC(=O)[C@H](CC(C)C)NC(=O)CNC(=O)[C@@H](NC(=O)[C@@H]1CCCN1C(=O)[C@H](CC(C)C)NC(=O)[C@H](CC(=O)O)NC(=O)[C@@H](NC(=O)[C@H](CO)NC(=O)[C@@H](NC(=O)[C@@H]1CCCN1C(=O)[C@@H]1CCCN1C(=O)CNC(=O)[C@@H]1CCC(=O)N1)[C@@H](C)CC)[C@@H](C)CC)[C@@H](C)O)[C@@H](C)CC)[C@@H](C)CC)[C@@H](C)O)C(N)=O` [compound 73], the Emax at CRF1R and on CRF2R was 11% each time.
